# Apparent affinities of Ab-14 variants for a coronavirus HR2 peptide

Data: MIT Lincoln Laboratory AlphaSeq set, Li et al. 2023, doi:10.1038/s41467-023-39022-2, as distributed in FLAb.

Target: peptide PDVDLGDISGINAS, taken from heptad repeat 2 (HR2) of SARS-CoV-2 spike.

The variants keep the heavy chain, the linker and the frameworks of Ab-14 (scFv order VH, the linker GGGGSGGGGSGGGGS, VL).
VH: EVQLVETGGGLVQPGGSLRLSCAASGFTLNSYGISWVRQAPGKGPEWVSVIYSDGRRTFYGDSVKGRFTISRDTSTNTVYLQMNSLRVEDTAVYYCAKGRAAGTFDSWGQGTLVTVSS
VL: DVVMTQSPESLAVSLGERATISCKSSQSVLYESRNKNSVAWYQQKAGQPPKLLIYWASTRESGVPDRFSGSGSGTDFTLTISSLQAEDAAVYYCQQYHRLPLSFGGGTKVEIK

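The parent was found by panning a naive human phage display library on the peptide. Designed CDR sequences, proposed from the first random library and measured here. Several design methods are mixed in this list. In AlphaSeq, yeast of one mating type display the scFv and yeast of the other type display the target. The frequency of each diploid, read from paired DNA barcodes, reflects how well the two displayed proteins bind. Read counts were normalised to the haploid input and turned into Kd by a linear fit to BCL2-family pairs of known affinity, for each replicate. Mating was done six times.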

The parent's light chain CDRs are KSSQSVLYESRNKNSVA, WASTRES, QQYHRLPLS; each variant's own CDRs replace them letter for letter.
Variants here have more than six changes.
Each Kd is an estimate from the mating assay, the geometric mean of the replicates in which the pair was seen; lower is stronger.
The range of this assay differs from that of the first round, and the authors advise against merging the two.

The variant TISQHTSLFSQTINNVA | EVSTREQ | QQYDRLPLI gave 57 nM (6 of 6 replicates; controls 1 of 18). The variant KISQMVRVGSTVSNSIA | EEQTRAK | QQYHRLPLA showed 9.5 nM (6 of 6 replicates; controls 2 of 18). With TISQMSTMFSQSINNVA | EVSTREQ | QQYDRLPLA the result was 2.4 nM (6 of 6 replicates; controls 0 of 18). For KLGGTLNTEMHKKNNVA | DLVMREN | QQYFRLPLS, the assay gave 53 nM (6 of 6 replicates; controls 1 of 18). With VISESVMYESRNRNSVA | DNSTRED | QCYDRLPLS the result was 530 pM (6 of 6 replicates; controls 3 of 18).

The variant QFTQNIFYGQRDDNSIA | HADELVK | QQYDRFPLD showed 1.1 µM (4 of 6 replicates; controls 2 of 18). For SIGGAMKSLSAHRNSVA | DMTNREN | QQYDRLPLS, the assay gave 4.9 nM (6 of 6 replicates; controls 2 of 18). For TLSQMSGVEAVKHNNVA | ENSTREN | QQYDRLPLS, the assay gave 300 nM (6 of 6 replicates; controls 2 of 18). The variant HISPMQAMHYEAKNSVA | DTETKLN | QQYIRLPLS gave 1.1 nM (6 of 6 replicates; controls 0 of 18). The variant MLSDLVKMGYRNTNSVA | DNSTRGS | QQYDRLPLS gave 2.3 µM (3 of 6 replicates; controls 2 of 18).

With TISQVMNTLTRHGNNVA | DLQEREK | QQYFRLPLS the result was 56 nM (6 of 6 replicates; controls 0 of 18). For MVSQLMLWGLHAKNSIA | EAVTRLN | QQYDRLPLI, the assay gave 76 nM (5 of 6 replicates; controls 0 of 18). The variant IVSQLMIWGMHLKNSIA | EAQTRVN | QQYDRLPLF showed 130 nM (1 of 6 replicates; controls 0 of 18). For NVGQSMDGEQRNKNSVA | HQSTRED | QHYHRLPLS, the assay gave 6.4 nM (6 of 6 replicates; controls 0 of 18). The variant KISMLQRFQNNAKNNIA | EMSRREE | QQYHRLPLS gave 7.0 nM (6 of 6 replicates; controls 0 of 18).

With KLSQSDGYESRNFNSVA | NASTRSH | QQYHRLPLS the result was 1.3 nM (6 of 6 replicates; controls 1 of 18). The variant SLQQSWGYQSRNKNSVA | NASTREW | QQYHRLPLS gave 3.0 nM (6 of 6 replicates; controls 1 of 18). The variant MVNGIMDHLSKNTNNVA | ETTTREK | QQYERLPLS showed 940 pM (6 of 6 replicates; controls 3 of 18). For KLSQSVLGEWRNFNSVA | HASTREQ | QDYHRLPLS, the assay gave 73 nM (6 of 6 replicates; controls 0 of 18). The variant HIELGTWGVQKFDSSVA | HASQRQE | QQYDQLPLT showed 5.7 nM (6 of 6 replicates; controls 2 of 18).

The variant KLSDVTEYESRNKNSVA | DLSTRGS | QDYHRLPLS gave 1.1 nM (6 of 6 replicates; controls 3 of 18). The variant KMSPSQEYEDRNFNSVA | HASVREE | QQYHRLPLS gave 2.7 nM (6 of 6 replicates; controls 2 of 18). The variant KLSCSWLMESRNSNSVA | HASKRES | QQYHRLPLS gave 3.8 nM (6 of 6 replicates; controls 2 of 18). With KISYMGEYFSTNHSAIA | QASTREQ | QQYHRLPLA the result was 1.7 nM (6 of 6 replicates; controls 0 of 18). The variant MISQLMNMGQFAINSVA | QASIRNN | QQYDRLPLA gave 2.8 nM (6 of 6 replicates; controls 3 of 18).

The variant KLTSVTGSEKVRGNNVA | EMETREK | QQYNRLPLS gave 3.0 nM (6 of 6 replicates; controls 2 of 18). For TLYGLSMSMAKNKNNVA | EMTTREK | QQYDRLPLM, the assay gave 7.9 nM (6 of 6 replicates; controls 0 of 18). The variant KISQVTEYESRNKNNVA | DLTTRGS | QDYHRLPLS gave 660 pM (6 of 6 replicates; controls 0 of 18). With MISQLYNMGQFAINSVA | QASVRNA | QQYDRLPLT the result was 150 nM (6 of 6 replicates; controls 1 of 18). The variant KITSHEREGTADNYAMA | NADVSHD | QQYSRLPLF showed 14 nM (6 of 6 replicates; controls 2 of 18).

For MLSNEQDYNYSADNSVA | DVTEKCN | QQYKRLPLT, the assay gave 940 pM (6 of 6 replicates; controls 0 of 18). For QMYPFEVAKGEGRNNVA | HVSTRAL | QQYFRLPLV, the assay gave 1.5 nM (6 of 6 replicates; controls 1 of 18). For TLLYGVTENAKPGKAIA | GNEERAQ | QQYFRLPLS, the assay gave 200 pM (3 of 6 replicates; controls 0 of 18). The variant VLAMESYGKSRHESNIA | GANMLSQ | QQYARLPFA gave 3.4 nM (6 of 6 replicates; controls 0 of 18). For KLSVSWLFESIEKNSVA | ERSTRES | QDYNRLPLS, the assay gave 6.4 nM (6 of 6 replicates; controls 0 of 18).

For TISYSALMTGLNRNSVA | QAEERLE | QQYNRLPLS, the assay gave 6.2 nM (6 of 6 replicates; controls 0 of 18).

The opening 4 entries, copied out:

Variant TISQHTSLFSQTINNVA | EVSTREQ | QQYDRLPLI gave 57 nM (6 of 6 replicates; controls 1 of 18).
Variant KISQMVRVGSTVSNSIA | EEQTRAK | QQYHRLPLA gave 9.5 nM (6 of 6 replicates; controls 2 of 18).
Variant TISQMSTMFSQSINNVA | EVSTREQ | QQYDRLPLA gave 2.4 nM (6 of 6 replicates; controls 0 of 18).
Variant KLGGTLNTEMHKKNNVA | DLVMREN | QQYFRLPLS gave 53 nM (6 of 6 replicates; controls 1 of 18).

Three control strains display no target. For all light chain designs, 4% of the pairings with them gave a signal, with a median of 430 nM and one signal in twenty below 38 nM, so weak values seen in few replicates may be background. For each scFv, signals with the empty controls are counted beside the result.
The authors' rule: three or more of the six replicates give a measured affinity, fewer mean a poor binder.